How the values were obtained:
human CCR2 = human CCR2 (Homo sapiens, UniProt P41597); test: Functional Ca2+ release test (B-1); conditions: Chem-1 cell line transfected with human CCR2; 50% inhibition of the MCP-1 effect, MCP-1 at EC50 (about 5 nM); in some cases means of several determinations
Procedure: The antagonistic action of test substances on CCR2 was determined in a functional Ca^2+ release test. Binding of CCL2/MCP-1 to CCR2 leads to a change in the conformation of the receptor resulting in Gi/Gq protein activation and intracellular signal cascade. This involves, inter alia, an intracellular Ca^2+ release. The test cell used was a Chem-1 cell line transfected with human CCR2 (ChemiSCREEN™ CCR2B Calcium-Optimized FLIPR Cell Line, Merck Millipore).
The test substances were dissolved in dimethyl sulphoxide (DMSO) at a concentration of 10 mM and serially diluted with DMSO in steps of 1:3.16 for a 10-point dose/activity analysis. According to the desired test concentrations, the substances were pre-diluted in Tyrode with 2 mM CaCl2 and 0.05% BSA.
The cells, cultivated in DMEM high glucose [supplemented with 10% FCS, 1 mM pyruvate, 15 mM HEPES, 500 μg/ml geniticin and non-essential amino acids (NEAA)], were sown at 5000 cells/25 μl in 384 well, μCLEAR/black cell culture plates from Greiner (#781092) and incubated at 37° C. for 24 h. The sowing medium consisted of DMEM high glucose [supplemented with 5% FCS, 1 mM pyruvate, 15 mM HEPES, 50 U/ml penicillin, 50 μg/ml streptomycin and non-essential amino acids (NEAA)]. […] Ca^2+ release was monitored over a period of 120 s in 1 s increments in a proprietary fluorescence imaging reader. […]

By UniProt entry, the sequences of proteins in these tests, tags left out. Residues count along the entry.
UniProt P41597, 1-360 isoform 2: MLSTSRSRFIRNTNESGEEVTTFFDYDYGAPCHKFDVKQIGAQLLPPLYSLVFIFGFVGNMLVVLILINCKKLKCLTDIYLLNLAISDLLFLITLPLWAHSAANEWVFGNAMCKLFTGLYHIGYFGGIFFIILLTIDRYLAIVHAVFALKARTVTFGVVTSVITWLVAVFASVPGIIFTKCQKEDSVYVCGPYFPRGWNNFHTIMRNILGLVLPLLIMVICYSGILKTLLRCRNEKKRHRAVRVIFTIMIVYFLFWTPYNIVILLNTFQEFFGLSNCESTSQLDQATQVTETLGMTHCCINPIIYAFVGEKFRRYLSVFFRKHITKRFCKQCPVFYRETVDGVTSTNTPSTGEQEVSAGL
UniProt P51683, whole entry: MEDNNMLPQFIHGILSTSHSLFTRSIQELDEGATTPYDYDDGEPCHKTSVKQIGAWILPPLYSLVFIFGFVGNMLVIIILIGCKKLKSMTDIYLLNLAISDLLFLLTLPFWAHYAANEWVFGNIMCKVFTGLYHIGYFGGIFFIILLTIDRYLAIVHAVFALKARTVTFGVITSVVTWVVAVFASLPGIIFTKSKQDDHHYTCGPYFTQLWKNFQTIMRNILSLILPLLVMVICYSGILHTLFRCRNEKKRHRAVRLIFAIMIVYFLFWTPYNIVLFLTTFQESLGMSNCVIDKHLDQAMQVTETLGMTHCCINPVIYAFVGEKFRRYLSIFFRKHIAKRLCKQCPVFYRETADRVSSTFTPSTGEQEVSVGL

murine CCR2 = murine CCR2 (Mus musculus, UniProt P51683); test: Functional β-arrestin recruiting test with human MCP-1 (B-2a); conditions: U2OS β-arrestin cell line transfected with murine CCR2; agonist human MCP-1 at EC50 (about 3 nM); in some cases means of several determinations
Procedure: The antagonistic action of test substances on CCR2 was determined in a β-arrestin test. The PathHunter β-arrestin GPCR test system (DiscoveRx Corporation, Ltd.) is a cell-based functional method for detecting binding of β-arrestin to an activated receptor. The molecular basis is a […] complementation measured by the enzymatic conversion of a chemiluminescent substrate. The test cell used was a U2OS β-arrestin cell line transfected with murine CCR2 (93-0543C3, DiscoveRx Corporation, Ltd.).
The test substances were dissolved in dimethyl sulphoxide (DMSO) at a concentration of 10 mM and serially diluted with DMSO in steps of 1:3.16 for a 10-point dose/activity analysis. […]
The cells, cultivated in MEM Eagle (supplemented with 10% FCS, 50 U/ml of penicillin, 50 μg/ml of streptomycin, 250 μg/ml of hygromycin and 500 μg/ml of geniticin), were sown at 2000 cells/25 μl in 384 well, μCLEAR/black cell culture plates from Greiner (#781092) and incubated at 37° C. for 24 h. […] After 90 min of incubation at 37° C., the solution was removed, and recruitment of β-arrestin to CCR2 was detected with the aid of the PathHunter detection reagent (93-001, DiscoveRx Corporation, Ltd.) according to the instructions of the manufacturer. Luminescence was measured after an incubation time of 60 min using a proprietary luminescence imaging measuring instrument. […]

| Compound | IC50 (human CCR2) [nM] | IC50 (murine CCR2) [nM] |
| --- | --- | --- |
| O=C(O)C1CCN(c2nc(C(F)(F)F)c(Cc3ccc(Cl)c(Cl)c3)c(=O)[nH]2)CC1 | 18 | 1400 |
| CC1CCCN1Cc1nc(C(F)(F)F)c(Cc2ccc(Cl)c(Cl)c2)c(=O)[nH]1 (stereo not shown) | 160 | 2500 |

From patent publication US20160237059A1, “HETEROCYCLIC SUBSTITUTED TRIFLUOROMETHYL PYRIMIDINONES AND THEIR USE” (BAYER PHARMA AKTIENGESELLSCHAFT, priority 2013, published 2016)
